Data reported in the NIST ThermoML archive (doi:10.1021/acs.jced.9b00445).
Numbers after ± are expanded uncertainties.

Legend:
[1] = Crystal; DSC
[2] = Molar enthalpy of transition or fusion; conditions: Crystal; DSC

Triple point temperature [1]: 427.35 ± 1.2 K
Molar enthalpy of transition or fusion [2]: 7.03 ± 0.454 kcal/mol
Structure (SMILES): Cc1ccccc1S(N)(=O)=O [o-toluenesulfonamide]
